According to patent publication US20200323849A1, “COMBINATIONS OF HISTONE DEACETYLASE INHIBITORS AND IMMUNOMODULATORY DRUGS” (Acetylon Pharmaceuticals, Inc., priority 2013, published 2020):

Target: T1, HDAC6 (Homo sapiens, UniProt Q9UBN7)
T1 construct: purchased BPS Biosciences
T1 sequence (Q9UBN7 1-1215): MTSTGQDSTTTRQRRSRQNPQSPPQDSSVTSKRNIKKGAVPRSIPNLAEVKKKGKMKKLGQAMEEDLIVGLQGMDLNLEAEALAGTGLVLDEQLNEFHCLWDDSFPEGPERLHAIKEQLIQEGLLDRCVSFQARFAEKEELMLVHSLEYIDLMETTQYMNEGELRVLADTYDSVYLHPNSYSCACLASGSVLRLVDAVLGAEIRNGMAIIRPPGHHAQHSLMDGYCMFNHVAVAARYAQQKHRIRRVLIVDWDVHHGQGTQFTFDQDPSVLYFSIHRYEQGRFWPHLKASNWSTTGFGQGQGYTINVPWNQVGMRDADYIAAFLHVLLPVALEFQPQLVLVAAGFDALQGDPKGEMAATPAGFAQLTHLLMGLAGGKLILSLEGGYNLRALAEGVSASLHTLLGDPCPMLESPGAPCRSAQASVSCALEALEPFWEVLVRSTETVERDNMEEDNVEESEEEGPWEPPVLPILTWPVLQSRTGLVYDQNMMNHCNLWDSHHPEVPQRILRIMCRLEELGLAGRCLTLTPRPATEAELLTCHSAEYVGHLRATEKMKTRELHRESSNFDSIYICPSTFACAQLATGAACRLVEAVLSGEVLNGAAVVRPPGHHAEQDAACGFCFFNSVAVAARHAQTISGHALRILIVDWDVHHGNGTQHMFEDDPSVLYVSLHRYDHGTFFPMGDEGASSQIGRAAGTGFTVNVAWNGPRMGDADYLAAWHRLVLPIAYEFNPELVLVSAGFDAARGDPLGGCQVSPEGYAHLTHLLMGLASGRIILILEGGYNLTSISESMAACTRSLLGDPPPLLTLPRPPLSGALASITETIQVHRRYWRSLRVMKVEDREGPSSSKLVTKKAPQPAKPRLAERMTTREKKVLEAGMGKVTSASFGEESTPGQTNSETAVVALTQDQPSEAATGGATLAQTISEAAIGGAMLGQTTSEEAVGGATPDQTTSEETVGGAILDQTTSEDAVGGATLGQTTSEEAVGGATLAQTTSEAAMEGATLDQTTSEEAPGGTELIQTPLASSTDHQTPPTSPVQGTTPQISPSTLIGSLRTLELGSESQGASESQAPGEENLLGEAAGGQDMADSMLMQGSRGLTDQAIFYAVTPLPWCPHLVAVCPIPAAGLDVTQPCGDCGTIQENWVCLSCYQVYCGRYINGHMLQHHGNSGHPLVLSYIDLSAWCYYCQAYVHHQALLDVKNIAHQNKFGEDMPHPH
Test: HDAC enzyme assays (HDAC6 selectivity)
Format: biochemical
Method: Compounds for testing were diluted in DMSO to 50 fold the final concentration and a ten point three fold dilution series was made. The compounds were diluted in assay buffer (50 mM HEPES, pH 7.4, 100 mM KCl, 0.001% Tween-20, 0.05% BSA, 20 μM TCEP) to 6 fold their final concentration. The HDAC enzymes (purchased from BPS Biosciences) were diluted to 1.5 fold their final concentration in assay buffer. The tripeptide substrate and trypsin at 0.05 μM final concentration were diluted in assay buffer at 6 fold their final concentration. The final enzyme concentrations used in these assays were 3.3 ng/ml (HDAC1), 0.2 ng/ml (HDAC2), 0.08 ng/ml (HDAC3) and 2 ng/ml (HDAC6). The final substrate concentrations used were 16 μM (HDAC1), 10 μM (HDAC2), 17 μM (HDAC3) and 14 μM (HDAC6). Five μl of compound and 20 μl of enzyme were added to wells of a black, opaque 384 well plate in duplicate. Enzyme and compound were incubated together at room temperature for 10 minutes. Five μl of substrate was added to each well, the plate was shaken for 60 seconds and placed into a Victor 2 microtiter plate reader. The development of fluorescence was monitored for 60 min and the linear rate of the reaction was calculated. The IC50 was determined using Graph Pad Prism by a four parameter curve fit.

O=C(CCCCCCNC(=O)c1cnc(N(c2ccccc2)c2ccccc2)nc1)NO [Compound A, 2-(diphenylamino)-N-(7-(hydroxyamino)-7-oxoheptyl) pyrimidine-5-carboxamide]
selective for HDAC6: 11 fold
